scFv variants of Ab-95 (light chain) against a SARS-CoV-2 spike peptide

Target: peptide PDVDLGDISGINAS, taken from heptad repeat 2 (HR2) of SARS-CoV-2 spike.

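The parent was found by panning a naive human phage display library on the peptide. Library AAYL52 holds single substitutions and randomly drawn double and triple substitutions in the CDRs. The scFvs were displayed on barcoded MATa yeast, the peptide on MATalpha yeast. Pairs that bind mate more often; barcode pairs of the diploids are counted by sequencing. The ratio of observed to expected reads was calibrated, replicate by replicate, on BCL2-family standards whose Kd was known from biolayer interferometry. There are three technical replicates.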

Parent scFv Ab-95: VH joined to VL by a 15-residue (Gly4Ser)3 linker. Changes lie in the light chain CDRs alone.
VH: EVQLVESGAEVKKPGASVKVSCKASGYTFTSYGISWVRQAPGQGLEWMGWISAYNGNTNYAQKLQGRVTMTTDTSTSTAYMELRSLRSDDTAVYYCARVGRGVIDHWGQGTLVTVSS
VL: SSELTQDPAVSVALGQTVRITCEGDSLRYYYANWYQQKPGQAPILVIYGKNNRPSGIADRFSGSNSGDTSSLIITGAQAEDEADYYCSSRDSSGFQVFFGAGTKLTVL

The parent's light chain CDRs are EGDSLRYYYAN, GKNNRPS, SSRDSSGFQVF; each variant's own CDRs replace them letter for letter. Values are log10 of the apparent Kd in nM; lower means stronger binding. Averages over replicates are reported, and they cover detected replicates only. An entry "ND" has no value in the source: the pair was not observed among the diploids in that replicate. This suggests poor binding but is not conclusive. As a blank, each scFv also met three strains without target: over library AAYL52, 28% of these pairings were detected, typically at 3.91 and seldom below 2.90. Also given: how often the same scFv was detected with the empty control strains, with their mean in brackets.

{"CDR-L1": "EGDSLRYYYAN", "CDR-L2": "GKQNRPS", "CDR-L3": "ASRDSSGFQVN", "log10 Kd, replicates": "ND / 3.07 / ND", "mean, log10 nM": "3.07", "empty controls": "0 of 9"}
{"CDR-L1": "EGDSLRYCYAN", "CDR-L2": "GKNNRGS", "CDR-L3": "SSRDSSGDQVF", "log10 Kd, replicates": "3.47 / 5.27 / 4.71", "mean, log10 nM": "4.48", "empty controls": "4 of 9 (4.86)"}
{"CDR-L1": "EGDSLRYYYAN", "CDR-L2": "GKYNRPS", "CDR-L3": "SSRGSSGFQVF", "log10 Kd, replicates": "3.73 / ND / 3.27", "mean, log10 nM": "3.50", "empty controls": "2 of 9 (3.58)"}
{"CDR-L1": "EGDSLRYYPAN", "CDR-L2": "GKNNRPS", "CDR-L3": "SSRSSSGNQVF", "log10 Kd, replicates": "1.73 / 1.80 / 1.32", "mean, log10 nM": "1.62", "empty controls": "3 of 9 (3.74)"}
{"CDR-L1": "EMDSMRYYYAN", "CDR-L2": "GKNNRPS", "CDR-L3": "SSRDSSGDQVF", "log10 Kd, replicates": "2.81 / ND / 3.91", "mean, log10 nM": "3.36", "empty controls": "4 of 9 (3.78)"}
{"CDR-L1": "EGDSLFIYYAN", "CDR-L2": "GKNNRPS", "CDR-L3": "SSRDSSGFQVF", "log10 Kd, replicates": "3.15 / 2.96 / 3.02", "mean, log10 nM": "3.04", "empty controls": "5 of 9 (3.64)"}
{"CDR-L1": "EGDSLRYVYAN", "CDR-L2": "GKNNRPS", "CDR-L3": "SSRDVSGFQVF", "log10 Kd, replicates": "2.12 / 1.65 / 1.91", "mean, log10 nM": "1.89", "empty controls": "1 of 9 (4.13)"}
{"CDR-L1": "EGDGLRYYYAN", "CDR-L2": "GKNNRPS", "CDR-L3": "SSVDSSGFQVR", "log10 Kd, replicates": "3.12 / 3.27 / ND", "mean, log10 nM": "3.20", "empty controls": "3 of 9 (3.96)"}
{"CDR-L1": "EGDSLRYTMAN", "CDR-L2": "GKNNRPS", "CDR-L3": "ISRDSSGFQVF", "log10 Kd, replicates": "1.19 / 1.14 / 0.85", "mean, log10 nM": "1.06", "empty controls": "1 of 9 (4.02)"}
{"CDR-L1": "EGDSLRNYYAN", "CDR-L2": "GKNNRPS", "CDR-L3": "SCRDSSGFQMF", "log10 Kd, replicates": "1.79 / 2.16 / 1.35", "mean, log10 nM": "1.76", "empty controls": "6 of 9 (4.14)"}
{"CDR-L1": "EGDALRYYYAN", "CDR-L2": "GANNRPS", "CDR-L3": "SSRDSAGFQVF", "log10 Kd, replicates": "2.61 / 2.25 / 2.39", "mean, log10 nM": "2.42", "empty controls": "3 of 9 (2.97)"}
{"CDR-L1": "EGDSLRYYYAN", "CDR-L2": "GKNRRPS", "CDR-L3": "SSRDSSGCQVF", "log10 Kd, replicates": "ND / 3.04 / 2.68", "mean, log10 nM": "2.86", "empty controls": "2 of 9 (3.32)"}
{"CDR-L1": "EGDSLRYYYAN", "CDR-L2": "GKYNRPS", "CDR-L3": "SSRDSSGFQVF", "log10 Kd, replicates": "3.21 / 3.07 / 3.10", "mean, log10 nM": "3.13", "empty controls": "5 of 9 (4.28)"}
{"CDR-L1": "EGDSGRYYEAN", "CDR-L2": "GKNNRPS", "CDR-L3": "SSRDSSLFQVF", "log10 Kd, replicates": "4.34 / 2.76 / ND", "mean, log10 nM": "3.55", "empty controls": "6 of 9 (4.75)"}
{"CDR-L1": "EGDSLQYTYAN", "CDR-L2": "GKNWRPS", "CDR-L3": "SSRDSSGFQVF", "log10 Kd, replicates": "1.64 / 1.90 / 1.29", "mean, log10 nM": "1.61", "empty controls": "4 of 9 (4.19)"}
{"CDR-L1": "EGDSLRCYYYN", "CDR-L2": "GKNNRPS", "CDR-L3": "SSNDSSGFQVF", "log10 Kd, replicates": "ND / ND / ND", "mean, log10 nM": "ND", "empty controls": "1 of 9 (4.12)"}
{"CDR-L1": "EGDSLRAYYAN", "CDR-L2": "GKNNRPS", "CDR-L3": "SSRDSSGFEVC", "log10 Kd, replicates": "1.78 / 1.55 / 1.56", "mean, log10 nM": "1.63", "empty controls": "3 of 9 (2.99)"}
{"CDR-L1": "EGDSFRYYYAN", "CDR-L2": "GKNNRPS", "CDR-L3": "SSRDSTGFPVF", "log10 Kd, replicates": "3.26 / 3.49 / 3.69", "mean, log10 nM": "3.48", "empty controls": "4 of 9 (3.48)"}
{"CDR-L1": "EGDSLRYYYAN", "CDR-L2": "GKNNRPS", "CDR-L3": "SSRDESGLQVF", "log10 Kd, replicates": "2.63 / 2.43 / 2.73", "mean, log10 nM": "2.60", "empty controls": "2 of 9 (3.97)"}

Values reported by Engelhart et al. 2022, doi:10.1038/s41597-022-01779-4 (FLAb copy).